Data: patent US9730984B2, “Composition for preventing or treating rheumatoid arthritis” (GemVax & KAEL Co., Ltd., priority 2012, dated 2017)

Tests used:
[1] = test system: CIA (collagen induced arthritis) mouse; experiment: Second experiment: CIA (collagen induced arthritis) animal model, 0.2-5 nM peptide treatment; type: in vivo
Description: (§1) Establishing CIA (Collagen Induced Arthritis) Animal Model
(§2) In order to find effectiveness of the peptide according to the present invention to rheumatoid arthritis (RA), CIA (collagen induced arthritis) mouse were used to confirmation.
(§3) Non-patent document disclosed in the present invention describes about CIA animal model in detail. In reference to this, the present embodiment established the CIA animal model as follows.
(§4) In the first and second experiment mentioned below, lyophilized and formed in powder PEP1 according to the Example 1 was dissolved in 0.9% saline solution and was used. After doing amendment of the purity (purity; 97.3%, content: 85.3%) of PEP1, the solution for injection was made in each concentration with 0.9% saline solution as an additive just before an administration. Every dose was administered by the solution in an amount of 100 μL.
Like the first experiment, the first inducement was done to 38 mice at day 1 by using 5-week mice, the mice were divided into the group consisting of 32 mice administered by a peptide composition before CIA inducement (8 mice of 0.2 nM, 100 μl (i.e. around 0.04 ng); 8 mice of 1 nM, 100 μl (around 0.2 ng dose); 8 mice of 2 nM, 100 μl (i.e. around 0.4 ng); 8 mice of 5 nM, 100 μl (i.e. around ing)) and the PBS treatment group consisting of 6 mice.
The second inducement was done at day 21, and the treatment was done by intradermal injection in each suitable concentration to each group at day 23, 25 and 27 (see FIG. 2).
(§5) The assessment of rheumatoid arthritis index was done at from the day of second inducement to the day 42 per every two days and the joint and serum was collected after sacrificing all mice at day 42.
(§6) The rheumatoid arthritis index is distinguished by the point from 0 to 4, and the point given to one mouse could be from 0 to max 16 (see Table 2).
(§7) For the assessment of rheumatoid arthritis, the index having point 0˜16 per a mouse was measured and the points are shown by the averages thereof.

[2] = test system: CIA (collagen induced arthritis) mouse; experiment: First experiment: CIA (collagen induced arthritis) animal model, preventive and therapeutic peptide treatment; type: in vivo; conditions: for rheumatoid arthritis index: FIG. 5, 6
Description: as §1, §2, §3, §4
The first induction was done to 38 mice at day 1 by using 5-weeks male DBA/1J mouse (Orient Bio Inc., Korea), and the mice were divided into the preventive group consisting of 16 mice administered by a peptide composition before CIA inducement (i.e. 8 mice of 1 nM, 100 μl (around 0.2 ng dose) and 8 mice 10 nM, 100 μl (around 2 ng dose)), the therapeutic group consisting of 16 mice administered by a peptide composition after CIA inducement (i.e. 8 mice of 1 nM, 100 μl and 8 mice of 10 nM, 100 μl), and the PBS treatment group consisting of 6 mice.
To the preventive group, the treatment was done by intradermal injection in each suitable concentration at day 2, 4, 6, 21, 23, 25, 35, 37 and 39. At day 19, the second inducement was done to 38 mice, and to the therapeutic group the treatment by intradermal injection in each suitable concentration at day 21, 23, 25, 35, 37 and 30 from day 21 (see FIG. 1).
as §5, §6, §7

HeLa cells = experiment: Toxicity test within HeLa cells (cell viability and toxicity analysis); type: cell-based; conditions: general statement; test in HeLa cells with 20 μM (FIG. 10)
Protocol: HeLa cell line was purchased from ATCC, The HeLa cell line was maintained in MEM supplemented with 10% fetal bovine serum (Invitrogen, USA), Earle's salts, non-essential amino acids, sodium pyruvate, 100 ug/ml penicillin and 100 units/ml streptomycin, and then incubated at 37° C., 5% CO2.
The cells were seeded into 96-well plates and added to each well for medium supplemented with 10% fetal bovine serum (Invitrogen, USA), 100 ug/ml penicillin and 100 units/ml streptomycin. The cells were cultured in 37° C., 5% CO2 for 12 h incubator. After incubated, plates washed by PBS, and added MEM (Minimum essential medium) for starvation during 1 h. The 20 μM of PEP 1 with 100 μL of the aqueous solution were added to each well, and then the cells were incubated at 37° C. for 24. After incubated, the cell viability and toxicity were evaluated using an MIT assay.

With `CC[C@H](C)[C@H](NC(=O)[C@H](Cc1ccccc1)NC(=O)[C@H](CCCNC(=N)N)NC(=O)[C@H](CC(C)C)NC(=O)[C@H](CCCNC(=N)N)NC(=O)[C@H](CO)NC(=O)[C@@H](NC(=O)[C@H](CC(C)C)NC(=O)[C@H](CC(C)C)NC(=O)[C@H](C)NC(=O)[C@@H]1CCCN1C(=O)[C@H](CCCNC(=N)N)NC(=O)[C@H](C)NC(=O)[C@@H](N)CCC(=O)O)[C@@H](C)O)C(=O)N1CCC[C@H]1C(=O)N[C@@H](CCCCN)C(=O)O` [PEP1] the “rheumatoid arthritis index, low-concentration treatment” value ([1]; 0.2 nM, 1 nM, FIG. 8 lower graph) was “more effectively appearing result of a low-concentration (0.2 nM, 1 nM) peptide treatment”, the “change of weight, low-concentration treatment” value ([1]; 0.2 nM, 1 nM, FIG. 9 lower graph) was “more effectively appearing result of a low-concentration (0.2 nM, 1 nM) peptide treatment” and the “survival during the administration” value ([1]; 0.2, 1, 2 or 5 nM, 100 μl, intradermal injection) was “all mice were survived”. The body weight ([1]; low-level peptide treatment group vs CIA control group, FIG. 9) was “increased body weight was confirmed”, the rheumatoid arthritis index ([1]; peptide treatment group of each concentration (0.2, 1, 2, 5 nM) vs CIA control group, FIG. 8) was “appeared to decrease the arthritis index in whole period” and the “histopathological profile (erosion and permeation by edema and inflammation)” value ([2]; 10 nM peptide and 1 nM peptide treated group (Tx) vs CIA control group, FIG. 4) was “such damages of the cells were decreased”. For the same compound, the “survival during the administration” value ([2]; first experiment, 1 nM or 10 nM, 100 μl, intradermal injection) was “all mice were survived”, the rheumatoid arthritis index ([2]; first experiment, preventive group (pre-1 nM and pre-10 nM)) was “effective to decreasing rheumatoid arthritis until day 36 but after then the effectiveness vanished” and the body weight ([2]; first experiment, preventive group and therapeutic group vs CIA control group, FIG. 7) was “increased body weights compared to the CIA control group”. For the same compound, the rheumatoid arthritis index ([2]; first experiment, therapeutic group (thera-1 nM and thera-10 nM)) was “showed the decreasing arthritis effect in whole period”, the “rheumatoid arthritis index, comparison of concentrations” value ([2]; first experiment, therapeutic group, 10 nM vs 1 nM) was “the 10 nM group showed the more effect than the 1 nM group” and the “effectiveness, comparison of concentrations (summary of first and second experiments)” value ([2]; summary of first and second experiments) was “the administration of 1 nM peptide was more effective than the 1 nM peptide having lower level”. The “change of the body weight” value ([2]; summary, therapeutic group of the 1 nM peptide treatment vs other groups) was “decreased body weight in the therapeutic group of the 1 nM peptide treatment is lower than any other group”, the “inhibition of rheumatoid arthritis, therapeutic group vs preventive group” value ([2]; summary, therapeutic group treated after second inducement) was “more effective to inhibit rheumatoid arthritis than the preventive group” and the “toxicity within a cell” value (HeLa cells) was “low toxicity within a cell”.
